From patent US20010036948A1 (priority 1998, published 2001)

Tested on: T/G Human Aortic Smooth Muscle Cells
Format: cell-based
Further: key: −: Lethal treatment, no cells left viable, all rounded, shriveled and dead; −/+: Some treated cells remain viable, about equal amount of clearly dead cells; +/−: Most cells remain viable, detectable number of dead cells; 1+: All cells appear viable, same density as when treated; 2+: Minimal proliferation, compared to control; 3+: Moderate proliferation compared to control; 4+: Maximal growth, unaffected by treatment.

CS(=O)(=O)OCCCCOS(C)(=O)=O [Busulfan, busulfan, reference compound]
Growth score: 4+
